From PMC5515408, “Sequence-specific DNA binding by MYC/MAX to low-affinity non-E-box motifs” (PLoS ONE, 2017)

Target: T1, six histidine (6his)-tagged full-length human MYC (p64) (human, UniProt P01106-1)
T1 construct: MYC (p64), human, UniProtKB P01106-1, full length; also called 6his-MYC; source: E. coli RosettaBlue(DE3)pLacI, purified
Assay: native gel or EMSA; purified recombinant proteins reconstituted into MYC:MAX or MAX:MAX complexes; the complexes were told apart by EMSA on labelled DNA probes (6% native polyacrylamide gel; 15 mM Tris-HCl pH 7.9, 100 mM KCl)
Settings: both partners purified

B1: six histidine (6his)-tagged full-length human MAX (p21) (natural protein)
chain: not shown
notes: MAX (p21), human, […], full length; source: E. coli, purified
binding result: binds
